Where two headings read alike, the source gives them in different places.
Test system: Sulfur Mustard (SM) inhalation induced lung injury
Settings: for survival / mean Pulmonary Artery Pressures (mPAP) / weight gain: at 25 days; for lung histology (airway epithelial layer, wall thickening, inflammation, luminal exudate): 25 days after SM exposure

Compound: C=C1CC[C@H](O)C/C1=C/C=C1\CCC[C@]2(C)[C@@H]([C@H](C)CCCC(C)C)CC[C@@H]12
- weight gain, course over time (1-dose regimen): initial improvement in weight gain over the first 8 days, similar to 4-dose and 3-dose treatment groups, but benefit was lost between 9-25 days
- survival (1-dose regimen (4 hrs post exposure), 20,000 IU/kg PO): 63%
- lung histology (airway epithelial layer, wall thickening, inflammation, luminal exudate) (1-dose regimen): no improvement in airway wall over control, with a complete absence of airway epithelium, severe wall thickening and inflammation, as well as severe inflammatory exudate impaction of airways
- mean Pulmonary Artery Pressures (mPAP) (1-dose regimen): 20.0 mmHg
- airways resistance (1-dose regimen, vs SM controls): no improvement
- compliance (1-dose regimen, vs SM controls): no improvement
- weight gain, course over time (3-dose regimen): initial improvement in weight gain over the first 12 days was seen, similar to 4-dose treatment group, but then this benefit was lost between 13-25 days
- survival (3-dose regimen (4 hrs, then 3, 7 days post exposure), 20,000 IU/kg PO): 85%
- survival (3-dose regimen (4 hrs, then 3, 7 days post exposure), 20,000 IU/kg PO, listed as Vit D3): 83%
- lung histology (airway epithelial layer, wall thickening, inflammation, luminal exudate) (3-dose regimen): some discontinuous airway epithelial layer presence in both proximal and distal airways, with moderate inflammation and moderate exudate present within the lumen
- mean Pulmonary Artery Pressures (mPAP) (3-dose regimen): 20.9 mmHg
- weight gain (3-dose regimen): 2%
- total airways resistance (3-dose regimen, vs SM controls): trending towards a decrease
- total compliance (3-dose regimen, vs SM controls): unchanged from SM controls
- survival (4-dose regimen (4 hrs, then 7, 14, 21 days post exposure), 20,000 IU/kg PO): 100%
- lung histology (airway epithelial layer, wall thickening, inflammation, luminal exudate) (4-dose regimen, Masson Trichrome): improvement in airway epithelial layer presence, with continuous layer seen in both proximal and distal airways, with minimal inflammation and exudate presence within the lumen
- mean Pulmonary Artery Pressures (mPAP) (4-dose regimen): 18.3 mmHg
- weight gain (4-dose regimen): 21%
- total airways resistance (4-dose regimen, vs SM controls): trending towards a decrease
- total compliance (4-dose regimen, vs SM controls): unchanged from SM controls
- lung histology (airway epithelial barrier, wall thickness, luminal inflammatory exudates) (repeated oral dosing regimen after lung injury): improved the airway epithelial barrier and wall thickness, and greatly decreased luminal inflammatory exudates
